Source: patent publication EP2544684B1, “4,4-DISUBSTITUTED PIPERIDINE DERIVATIVES USEFUL AS INHIBITORS OF DIPEPTIDYL PEPTIDASE-1 (DPP-1)” (Janssen Pharmaceutica NV, priority 2010, dated 2011)

Protein sequences, listed by entry. Tags and fused reporters are not part of them. Residues count along the entry.
UniProt P53634, 25-463 limits assumed: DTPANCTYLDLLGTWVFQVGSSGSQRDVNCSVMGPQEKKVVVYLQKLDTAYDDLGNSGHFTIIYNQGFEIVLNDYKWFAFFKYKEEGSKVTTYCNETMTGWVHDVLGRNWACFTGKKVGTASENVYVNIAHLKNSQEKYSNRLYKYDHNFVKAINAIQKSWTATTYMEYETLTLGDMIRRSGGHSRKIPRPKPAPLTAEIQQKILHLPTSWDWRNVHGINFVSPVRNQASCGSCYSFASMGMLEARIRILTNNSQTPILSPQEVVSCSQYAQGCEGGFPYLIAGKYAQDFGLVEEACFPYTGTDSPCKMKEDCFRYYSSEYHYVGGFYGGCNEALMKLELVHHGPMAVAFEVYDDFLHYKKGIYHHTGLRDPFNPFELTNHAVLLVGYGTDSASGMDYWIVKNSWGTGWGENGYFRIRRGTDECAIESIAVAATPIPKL

Target: DPP-1 (Cathepsin C) (Homo sapiens, UniProt P53634)
Assay: DPP-1 Inhibition Assay (in vitro), fluorogenic substrate GR-AMC
Format: biochemical
Settings: recombinant human DPP-1 0.15 nM, 10 uM GR-AMC, pH 7.0, room temperature; average value where tested multiple times
Protocol: Test compounds were assessed for DPP-1 (Cathepsin C) inhibitory activity using a fluorogenic substrate, GR-AMC (Glycine-Arginine-amino-4-methylcoumarin, Bachem, I-1215). The amount of amino-methylcoumarin released is proportional to the DPP-1 activity, and the reaction is monitored kinetically with a Molecular Devices plate reader using black 96-well plates.
All compounds were tested under room temperature conditions. The assay buffer consisted of 50 mM HEPES, pH 7.0, 100 mM NaCl, 2 mM glutathione (GSH), and 0.002% TWEEN 20. GSH and TWEEN 20 were added to the buffer fresh daily. Just prior to use, an in-house preparation of recombinant human DPP-1 (240 µM stock, MW 49.6 kD) was diluted 600-fold in assay buffer containing fresh 2 mM dithiothreitol (DTT) to activate the enzyme, then diluted into assay buffer (without DTT) 133-fold for a DPP-1 working solution of 3 nM. […]
Additions to a 96-well black Costar 3915 plates were as follows: 90 µL of 11 µM GR-AMC, 5 µL test compound (followed by mixing), and 5 µL 3 nM DPP-1 to start the reaction. Fluorescent reactions were monitored kinetically at 360 nm excitation, 440 nm emission on a Molecular Devices Spectramax XPS reader. The Softmax Pro software of the reader determined the initial velocity of the selected data (the first 3-5 minutes of the reaction), and the best linear regression fit of the initial kinetic data. […]

IC50: 27 nM
Compound: N#Cc1ccc(CC2(C(=O)NCC3CCCCC3)CCN(C(=O)[C@@H](N)Cc3cccs3)CC2)cc1
